Legend:
[1] = target: human PTH1R on Saos-2 cells (endogenous) (human) (UniProt Q03431); experiment: cell-based or functional assay
[2] = target: human PTH1R overexpressed on CHO cells (human) (UniProt Q03431); experiment: cell-based or functional assay

The chains behind the UniProt entries cited, without tags or fusion partners. Residues count along the entry.
UniProt Q03431, 27-593: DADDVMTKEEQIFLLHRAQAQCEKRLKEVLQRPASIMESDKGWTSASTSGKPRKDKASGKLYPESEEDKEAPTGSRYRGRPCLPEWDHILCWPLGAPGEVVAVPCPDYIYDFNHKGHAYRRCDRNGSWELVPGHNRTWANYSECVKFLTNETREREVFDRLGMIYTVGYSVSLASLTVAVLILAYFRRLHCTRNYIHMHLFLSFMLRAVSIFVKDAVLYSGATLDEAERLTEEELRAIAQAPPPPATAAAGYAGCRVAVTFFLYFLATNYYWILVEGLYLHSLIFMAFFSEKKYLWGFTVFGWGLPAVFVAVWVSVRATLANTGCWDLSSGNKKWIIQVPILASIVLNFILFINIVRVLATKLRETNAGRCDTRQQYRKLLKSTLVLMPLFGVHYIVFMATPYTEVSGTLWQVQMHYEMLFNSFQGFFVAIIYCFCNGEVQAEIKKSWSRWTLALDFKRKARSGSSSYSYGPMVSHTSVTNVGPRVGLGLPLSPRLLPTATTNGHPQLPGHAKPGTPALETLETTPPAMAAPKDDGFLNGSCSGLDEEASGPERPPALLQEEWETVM

Question: For “human PTHrP(1-34) (from UniProt P12272 37-70) (peptide)”, which EC50 of PTHrP(1-34), cAMP assay, vehicle only [1] is on record?
Answer: Its EC50 of PTHrP(1-34), cAMP assay, vehicle only is 0.699 nM.

Question: And the EC50 of PTHrP (1-34) induced ERK1/2 phosphorylation without anti-PTH1R antibody [2]?
Answer: Its EC50 of PTHrP (1-34) induced ERK1/2 phosphorylation without anti-PTH1R antibody is 10.6 nM.

Question: And the EC50 of PTHrP(1-34), cAMP assay, vehicle only [2]?
Answer: The EC50 of PTHrP(1-34), cAMP assay, vehicle only was 0.0614 nM.
